Measurements as given in article PMC3267002 (Bioorganic & medicinal chemistry, 2011).

Protein sequences, listed by entry. Tags and fused reporters are not part of them.
UniProt P14416, whole entry: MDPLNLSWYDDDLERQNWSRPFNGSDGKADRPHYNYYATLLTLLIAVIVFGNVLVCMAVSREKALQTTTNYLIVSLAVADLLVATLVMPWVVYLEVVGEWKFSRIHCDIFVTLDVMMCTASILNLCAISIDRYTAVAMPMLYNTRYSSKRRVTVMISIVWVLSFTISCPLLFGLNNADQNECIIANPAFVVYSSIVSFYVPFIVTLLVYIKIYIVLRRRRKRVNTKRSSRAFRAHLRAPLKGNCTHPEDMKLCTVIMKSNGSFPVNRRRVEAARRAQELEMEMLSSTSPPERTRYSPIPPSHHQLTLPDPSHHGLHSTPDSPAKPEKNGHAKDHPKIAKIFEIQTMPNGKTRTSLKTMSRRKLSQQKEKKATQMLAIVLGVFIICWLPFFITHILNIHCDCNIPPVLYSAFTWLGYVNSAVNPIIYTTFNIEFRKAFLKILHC

Molecular target: D2 receptor (Homo sapiens, UniProt P14416)
Test: NIMH-PDSP radioligand binding, D2

Structure (SMILES): OC1(c2ccc(Cl)cc2)CCN(CCCCc2ccc(F)cc2)CC1 [Compound 5, 4-(4'-chlorophenyl)-1-(4'-(4-fluorophenyl)butyl)piperidin-4-ol]
- decrease in binding to the D2 receptor: 27 fold
